Data taken from patent publication US20230105982A1, “INSULIN-INCRETIN CONJUGATES” (Merck Sharp & Dohme Corp., priority 2021, published 2023).

Amino acid sequences for entries named in this document (tags omitted). Residues count along the entry.
UniProt P47871, 26-477: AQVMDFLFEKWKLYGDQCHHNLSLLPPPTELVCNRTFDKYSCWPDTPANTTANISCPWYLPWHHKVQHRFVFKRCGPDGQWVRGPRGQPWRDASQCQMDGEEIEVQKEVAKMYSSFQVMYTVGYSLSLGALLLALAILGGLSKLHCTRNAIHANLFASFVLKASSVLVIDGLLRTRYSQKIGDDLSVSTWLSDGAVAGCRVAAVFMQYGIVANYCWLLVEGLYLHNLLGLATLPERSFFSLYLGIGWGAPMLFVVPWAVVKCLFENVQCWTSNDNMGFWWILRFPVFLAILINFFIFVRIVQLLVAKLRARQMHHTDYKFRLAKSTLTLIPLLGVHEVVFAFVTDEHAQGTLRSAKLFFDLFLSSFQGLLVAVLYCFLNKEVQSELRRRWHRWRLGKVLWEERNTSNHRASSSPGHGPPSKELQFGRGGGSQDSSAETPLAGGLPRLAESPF
UniProt P43220, 24-463: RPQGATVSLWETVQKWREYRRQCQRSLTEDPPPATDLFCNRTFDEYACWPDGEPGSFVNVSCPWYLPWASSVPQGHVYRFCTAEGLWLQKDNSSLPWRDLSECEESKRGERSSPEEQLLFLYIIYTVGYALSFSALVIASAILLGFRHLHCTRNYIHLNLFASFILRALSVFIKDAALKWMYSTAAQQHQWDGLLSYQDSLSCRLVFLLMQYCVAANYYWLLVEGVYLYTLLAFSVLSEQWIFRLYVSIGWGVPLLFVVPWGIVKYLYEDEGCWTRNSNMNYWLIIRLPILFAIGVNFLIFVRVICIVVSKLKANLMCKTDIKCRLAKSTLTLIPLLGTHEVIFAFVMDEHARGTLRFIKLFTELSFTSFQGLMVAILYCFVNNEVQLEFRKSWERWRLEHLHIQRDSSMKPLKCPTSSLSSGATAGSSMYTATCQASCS

What was measured:
human GCGR = molecular target: T1, human GCGR (Homo sapiens, UniProt P47871); experiment: cAMP activity assay, cells expressing human GCGR; format: cell-based; conditions: hGCGR_EC50
T1 construct: expressed in transfected cells

human GLP1R = human GLP1R (Homo sapiens, UniProt P43220); experiment: cAMP activity assay, cells expressing human GLP1R; format: cell-based

| SMILES | EC50 (human GCGR) [nM] | EC50 (human GLP1R; hGLP1R EC50) [nM] | EC50 (human GLP1R; cAMP assay, Table 5, read-out: hGLP1R EC50) [nM] |
| --- | --- | --- | --- |
| CCCCCCCCCCCCCCCC(=O)N[C@@H](CCC(=O)N[C@@H](CCC(=O)NCCCC[C@H](NC(=O)[C@H](CC(=O)O)NC(=O)[C@H](CO)NC(=O)[C@@H](NC(=O)[C@H](Cc1ccccc1)NC(=O)[C@@H](NC(=O)CNC(=O)[C@H](CCC(N)=O)NC(=O)[C@@H](CO)NC(=O)[C@@H](N)Cc1c[nH]cn1)[C@@H](C)O)[C@@H](C)O)C(=O)N[C@@H](CO)C(=O)N[C@@H](CCCCN)C(=O)N[C@@H](Cc1ccc(O)cc1)C(=O)N[C@@H](CC(C)C)C(=O)N[C@@H](CC(=O)O)C(=O)NC(C)(C)C(=O)N[C@@H](CCCNC(=N)N)C(=O)N[C@@H](C)C(=O)N[C@@H](C)C(=O)N[C@@H](CCC(N)=O)C(=O)N[C@@H](CC(=O)O)C(=O)N[C@@H](Cc1ccccc1)C(=O)N[C@H](C(=O)N[C@@H](CCCCN=[N+]=[N-])C(=O)N[C@@H](Cc1c[nH]c2ccccc12)C(=O)N[C@@H](CC(C)C)C(=O)N[C@@H](CC(C)C)C(=O)N[C@@H](CC(=O)O)C(=O)N[C@H](C(N)=O)[C@@H](C)O)C(C)C)C(=O)O)C(=O)O [PEP7] | 0.06 | 0.38 | – |
| CSCC[C@H](NC(=O)[C@H](CC(C)C)NC(=O)[C@H](Cc1c[nH]c2ccccc12)NC(=O)[C@H](CCC(N)=O)NC(=O)[C@@H](NC(=O)[C@H](Cc1ccccc1)NC(=O)[C@H](CC(=O)O)NC(=O)[C@H](CCCCN=[N+]=[N-])NC(=O)[C@H](C)NC(=O)[C@H](C)NC(=O)[C@H](CCCNC(=N)N)NC(=O)C(C)(C)NC(=O)[C@H](CC(=O)O)NC(=O)[C@H](CC(C)C)NC(=O)[C@H](Cc1ccc(O)cc1)NC(=O)[C@H](CCCCN)NC(=O)[C@H](CO)NC(=O)[C@H](CCCCN)NC(=O)[C@H](CC(=O)O)NC(=O)[C@H](CO)NC(=O)[C@@H](NC(=O)[C@H](Cc1ccccc1)NC(=O)[C@@H](NC(=O)CNC(=O)[C@H](CCC(N)=O)NC(=O)C(C)(C)NC(=O)[C@@H](N)Cc1c[nH]cn1)[C@@H](C)O)[C@@H](C)O)C(C)C)C(=O)N[C@@H](CC(N)=O)C(=O)N[C@H](C(=O)N[C@@H](CCCCN)C(=O)N[C@@H](CCC(N)=O)C(=O)O)[C@@H](C)O [PEP70] | – | – | 0.04 |

Where two headings read alike, the source gives them in different places.
